Assays:
CD-1 male mice = assay: Phenylquinone writhing analgesic assay; conditions: Mus musculus
[1] = target: T1, human kappa opioid receptor (Homo sapiens, UniProt P41145); assay: biochemical; assay type: binding
T1 construct: expressed in transfected cells; host or cells: CHO cells

Sequences of proteins named here, by UniProt entry; tags and fusion partners are left off. A change or cut given only in a name is not applied to a line headed by its entry.
UniProt P41145: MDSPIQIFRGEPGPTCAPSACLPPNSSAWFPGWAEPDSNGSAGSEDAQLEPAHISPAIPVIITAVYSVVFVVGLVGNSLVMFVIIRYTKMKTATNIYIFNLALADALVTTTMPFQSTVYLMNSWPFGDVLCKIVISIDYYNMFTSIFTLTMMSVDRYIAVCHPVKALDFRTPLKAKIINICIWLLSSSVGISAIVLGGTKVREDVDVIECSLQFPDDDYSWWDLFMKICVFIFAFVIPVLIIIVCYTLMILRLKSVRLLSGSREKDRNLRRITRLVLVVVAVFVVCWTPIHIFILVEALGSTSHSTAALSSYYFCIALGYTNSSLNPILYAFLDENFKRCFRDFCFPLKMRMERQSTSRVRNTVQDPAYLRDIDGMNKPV

Row | SMILES | ED50 (CD-1 male mice) | Ki [1]
1 | CN1CC[C@]23c4c5ccc(O)c4O[C@H]2[C@@H](O)C=C[C@H]3[C@H]1C5 [Morphine, morphine, reference compound] | 0.369 mg/kg | 
2 | COCCOCCOCCOC1C=CC2C3Cc4ccc(OC)c5c4C2(CCN3C)C1O5 (stereo not drawn) [α-6-mPEG3-O-codeine] |  | 36.5 µM
